One substance from patent publication US9532941B2, “Method for treatment of hair loss with a combination of natural ingredients” (priority 2011, dated 2017) can be followed below.

A short description of the series: Solubility of EGCG in updated formulation. The note with it: EGCG about 75 to 150 mg/ml in updated formulation.

For the substance epigallocatechin-3-gallate [EGCG], the solubility in formulation entry was “not to be feasible due to solubility problems”.
